Test results: patent US6984639B2, “Heterocyclic ketone and thioester compounds and uses” (GPI NIL Holdings, Inc., priority 1996, dated 2006)

Test system: cultured chick sensory neurons from dorsal root ganglia
Experiment: Chick Dorsal Root Ganglion Cultures and Neurite Outgrowth
Type: cell-based
Method: Dorsal root ganglia were dissected from chick embryos of ten day gestation. Whole ganglion explants were cultured on thin layer Matrigel-coated 12 well plates with Liebovitz L15 plus high glucose media supplemented with 2 mM glutamine and 10% fetal calf serum, and also containing 10 μm cytosine β-D arabinofuranoside (Ara C) at 37° C. in an environment containing 5% CO2. Twenty-four hours later, the DRGs were treated with various concentrations of nerve growth factor, immunophilin ligands or combinations of NFG plus drugs. Forty-eight hours after drug treatment, the ganglia were visualized under phase contrast or Hoffman Modulation contrast with a Zeiss Axiovert inverted microscope. Photomicrographs of the explants were made, and neurite outgrowth was quantitated. Neurites longer than the ORG diameter were counted as positive, with total number of neurites quantitated per each experimental condition. Three to four DRGs are cultured per well, and each treatment was performed in duplicate.
Dose-response curves were generated from which ED50 values were obtained.

Measured: neurite outgrowth in sensory neurons (photomicrograph)

2-Phenyl-1-ethyl (2S)-1-(3,3-dimethyl-1,2-dioxopentyl)-2-pyrrolidinecarbothioate [Compound 9]
promoting neurite outgrowth: 10 pM | 1 nM | 100 nM
